This is an account of results in PubChem BioAssay AID1117337 (Cheminformatics & Chemogenomics Research Group (CCRG), …, 2015).

Active and inactive are the calls of the source. How the calls were made is not given here. A value given as a limit tells only on which side of the number the result lay.

For this experiment, the system named is ADSC/ECFC co-culture, VEGF-stimulated, CD31 tube area. Briefly: ADSC/ECFC co-culture angiogenesis inhibition – imaging, VEGF stimulation, CD31 staining, tube area, IC50, dose response (AID 1117337).

Take `C/C1=C2N=C(/C=C3N=C(/C(C)=C4\[N-][C@@](C)([C@@H]5N=C1[C@](C)(CCC(=O)NC[C@@H](C)OP(=O)([O-])O[C@H]1[C@@H](O)[C@@H](n6cnc7cc(C)c(C)cc76)O[C@@H]1CO)[C@H]5CC(N)=O)[C@@](C)(CC(N)=O)[C@@H]4CCC(N)=O)[C@@](C)(CC(N)=O)[C@@H]\3CCC(N)=O)C(C)(C)[C@@H]/2CCC(N)=O.[C-]#N.[Co+3]`: the IC50 is inactive: > 10 µM.
